These are literature values, as cited in patent publication US20210037830A1, “PHYTOTOXIC MICRONUTRIENT COMBINATIONS FOR SELECTIVE CONTROL OF INVASIVE PLANT SPECIES” (Edaphix, LLC, priority 2019, published 2021).

This data set relates to French marigold. The note with it: in vivo; cited from earlier work.

Regarding iron, the “concentration inducing micro-nutrient toxicity” value is 2000 ng/mL.
